Assay results as given in ChEMBL document CHEMBL1148576, “Identification of potent water soluble purine-scaffold inhibitors of the heat shock protein 90” (J Med Chem, 2006).

The chains behind the UniProt entries cited, without tags or fusion partners.
UniProt P08238, whole entry: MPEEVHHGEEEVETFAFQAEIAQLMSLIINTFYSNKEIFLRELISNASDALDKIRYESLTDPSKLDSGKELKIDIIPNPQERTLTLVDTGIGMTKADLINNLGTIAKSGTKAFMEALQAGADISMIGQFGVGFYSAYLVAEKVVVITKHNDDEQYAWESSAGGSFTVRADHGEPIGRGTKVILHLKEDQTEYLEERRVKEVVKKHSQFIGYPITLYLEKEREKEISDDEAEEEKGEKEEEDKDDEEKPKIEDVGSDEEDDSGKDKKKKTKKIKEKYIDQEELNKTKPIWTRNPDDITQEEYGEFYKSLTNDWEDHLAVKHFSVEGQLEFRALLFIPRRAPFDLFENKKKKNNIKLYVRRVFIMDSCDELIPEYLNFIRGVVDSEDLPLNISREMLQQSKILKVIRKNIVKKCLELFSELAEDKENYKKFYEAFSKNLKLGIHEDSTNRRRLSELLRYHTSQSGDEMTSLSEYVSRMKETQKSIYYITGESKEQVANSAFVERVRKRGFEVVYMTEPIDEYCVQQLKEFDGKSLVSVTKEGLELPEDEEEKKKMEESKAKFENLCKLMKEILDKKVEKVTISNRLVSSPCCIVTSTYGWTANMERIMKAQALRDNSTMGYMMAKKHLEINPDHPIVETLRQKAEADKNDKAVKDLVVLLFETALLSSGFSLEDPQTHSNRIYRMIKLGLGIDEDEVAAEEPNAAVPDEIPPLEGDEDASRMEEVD

Legend:
[1] = molecular target: T1, Heat shock protein HSP 90-beta (Homo sapiens, UniProt P08238); experiment: Specificity towards transformed SKBr3 cell line over normal lung tissue Hsp90; type: functional, cell-based
[2] = molecular target: T1, Heat shock protein HSP 90-beta; experiment: Specificity towards transformed SKBr3 cell line over normal heart tissue Hsp90; type: functional, tissue-based

Work on `CC(C)NCCCn1c(Cc2cc3c(cc2I)OCO3)nc2c(N)nc(F)nc21` yielded a Ratio [1] of 48 and a Ratio [2] of 140.
